Bioassay records deposited in PubChem BioAssay by National Center for Advancing Translational Sciences (NCATS).
Most compounds without a hit are left out; they make up all but 2.5% or so of the library.
miR-21 reporter: raises the signal of a miR-21 reporter | HeLa miR-21 FLuc reporter, luciferase, 48 h | Potency, µM (doses to about 38.3 µM), for the others: at the highest dose reporter change, positive = more light | 340,000 tested, under 10 active | AID 2288; active = well fitted rising curve with a large enough effect; inconclusive = small, poorly fitted or top-dose-only effect; inactive = no such curve, though single readings can be large or run the other way;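 also: % of control where 0% means no effect; miR-21 action dims this reporter so a rising signal means less miR-21 action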
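Luminescence from a firefly luciferase reporter carrying a miR-21 binding site downstream, stably expressed under a CMV promoter in HeLa cells that make miR-21 endogenously, reports miRNA modulation after 48 h compound exposure up to approximately 40uM final.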
ClpP mod: qHTS Assay for Activators of ClpP; ATP-dependent Clp protease proteolytic subunit (Bacillus subtilis (strain 168)), P80244; purified B. subtilis ClpP, FRET peptide cleavage, 20 min; Potency, µM (top dose mostly 57.5 µM), for the others: at the top dose activity change, negative = active; 1.9% of 340,000 active; AID 651965, 2013; active = well fitted falling curve with a large enough effect; inconclusive = small, poorly fitted or top-dose-only effect; inactive = no such curve, though single readings can be large or run the other way; note: potency is the fitted concentration of half-maximal effect; the source files actives as falling curves though it sought activators and does not explain the sign; nearly all actives have a fitted effect of over 65% in size
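ClpP 10 microg/mL final, pH 8 Tris/KCl buffer with BSA, glycerol, Tween-20; compound pinned in; FRET-FV substrate; RT 20 min; Ex320/Em430; ΔFRET vs ADEP 5.8 microM, DMSO, no enzyme.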
TrxR1 substrate: substrates of rat thioredoxin reductase 1; 0.01% of 390,000 active; AID 588456; purified TrxR1 substrate turnover, NADPH consumption readout; Potency, µM (doses to about 114 µM), for inactives: at the top dose activity change, negative = substrate turnover; note: potency is the fitted concentration of half-maximal effect; % is set by controls: 0 for no effect and ±100 for the full control effect; nearly all actives have a fitted effect of over 50% in size
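Rat TrxR1, dispensed at 90 nM, was prereduced with 400 uM NADPH (final) for 5 min at ~22 deg C, then incubated with compound 15 min before 400 uM selenite. A first-read NADPH fluorescence drop versus no-compound background flagged substrates.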
TrxR1 inh: rat TrxR1 inhibition; AID 588453; Potency, µM (top dose mostly 114 µM), for inactives: at the top dose activity change, negative = inhibition, most hits filed as inhibitors; 1% of 390,000 active; recombinant rTrxR1, NADPH fluorescence consumption, selenite substrate; note: potency is the fitted concentration of half-maximal effect; % is set by controls: 0 for no effect and ±100 for the full control effect; nearly all actives have a fitted effect of over 65% in size
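Rat TrxR1 (90 nM in the dispensed reagent) was pre-reduced with 400 uM NADPH for 5 min at room temperature, then incubated with compound for 15 min. After 400 uM selenite was added, NADPH fluorescence (Ex 340/Em 450 nm) was followed for 8 min.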
Apoferritin bind: binds horse apoferritin like a general anesthetic | apoferritin/1-aminoanthracene competitive binding, fluorescence | Potency, µM (highest dose often 77.5 µM), for inactives: at the top dose activity change, negative = displacement, actives largely listed as inhibitors | 0.074% of 350,000 active; note: potency is the fitted concentration of half-maximal effect; % is set by controls: 0 for no effect and ±100 for the full control effect; nearly all actives have a fitted effect of over 20% in size
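Concentration-response curves derived by four-parameter Hill fitting of normalized fluorescence, where compounds displaced 1-AMA from 10 uM horse apoferritin following a brief 10 min room-temperature incubation; propofol titration acted as positive control.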
* marks the source's active call; other numbers are inactive results; i = inactive; ? = inconclusive; . = no result; [ ] = dose if it differs, or a comment. Unless noted, calls come from the whole dose curve; as a rule, active = well fitted curve in the direction sought with a large enough effect; inconclusive = small, poorly fitted or top-dose-only effect, or another doubt; inactive = no such curve, though single readings can be large; an effect the other way counts as inactive or inconclusive.

The chains behind the UniProt entries cited, without tags or fusion partners.
ATP-dependent Clp protease proteolytic subunit (Bacillus subtilis (strain 168)), P80244, UniProt P80244, whole entry, looked up: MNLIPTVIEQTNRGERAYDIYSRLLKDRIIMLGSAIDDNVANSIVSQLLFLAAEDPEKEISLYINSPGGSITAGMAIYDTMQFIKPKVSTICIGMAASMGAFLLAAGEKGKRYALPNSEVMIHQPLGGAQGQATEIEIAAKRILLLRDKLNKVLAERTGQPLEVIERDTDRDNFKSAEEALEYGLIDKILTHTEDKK

Start of the listing, in advance:
SMILES | miR-21 reporter | ClpP mod | TrxR1 substrate | TrxR1 inh | Apoferritin bind
CCN1CCCn2c1nc1c2c(=O)n(C)c(=O)n1C | 1% | -7% | 18% | 79µM* | -4%
Nc1ccc(-c2nc3c(Cl)c(N)ccc3[nH]2)cc1 | 14% | 28µM* | 985% | 79µM* | 7%
Cc1ccccc1NC(=O)c1c(C)oc2ccc(O)c(CN3CCCC(C)C3)c12 (stereo not drawn) | 7% | -1% | 4% | 16% | -10%

The whole of this part (from the top)
SMILES | miR-21 reporter | ClpP mod | TrxR1 substrate | TrxR1 inh | Apoferritin bind
CCN1CCCn2c1nc1c2c(=O)n(C)c(=O)n1C | 1% | -7% | 18% | 79µM* | -4%
Nc1ccc(-c2nc3c(Cl)c(N)ccc3[nH]2)cc1 | 14% | 28µM* | 985% | 79µM* | 7%
Cc1ccccc1NC(=O)c1c(C)oc2ccc(O)c(CN3CCCC(C)C3)c12 (stereo not drawn) | 7% | -1% | 4% | 16% | -10%
CCN(CC)CCC=C(c1cccs1)c1cccs1 | . | 1% | 13% | 22µM* | .
CCOC(=O)c1ccc(NC(=O)CCCc2nc(-c3ccccc3Cl)no2)cc1 | 1% | -1% | -1% | 17% | -12%
COc1ccc2c(c1)CCc1cc(C(=O)O)sc1-2 | -12% | 3% | i | 45µM* | 32%
O=C(CSC1=Nc2ccccc2N=C(c2ccc(F)cc2)C1)Nc1cc(F)ccc1F | -20% | 1% | 2%[57.1 µM] | 23%[57.1 µM] | -14%
Cc1ccc(C(=O)Sc2cccccc2=O)cc1 | ? | . | 3%[57.1 µM] | 0.63µM* | 7%
O=C(Nc1ccccc1SC(=O)c1ccccc1)c1ccccc1 | . | -3% | . | . | .
COc1ccc2[nH]cc(CCN=C(NC(=O)c3ccccc3F)Nc3nc(C)cc(C)n3)c2c1 | -13% | 0% | -8% | 7% | 22%

The last 3 entries of the section above are carried over, then new ones follow.
SMILES | miR-21 reporter | ClpP mod | TrxR1 substrate | TrxR1 inh | Apoferritin bind
Cc1ccc(C(=O)Sc2cccccc2=O)cc1 | ? | . | 3%[57.1 µM] | 0.63µM* | 7%
O=C(Nc1ccccc1SC(=O)c1ccccc1)c1ccccc1 | . | -3% | . | . | .
COc1ccc2[nH]cc(CCN=C(NC(=O)c3ccccc3F)Nc3nc(C)cc(C)n3)c2c1 | -13% | 0% | -8% | 7% | 22%
Cc1ccc(C(=O)c2cn(CC(=O)Nc3ccc4c(c3)OCCO4)c3nc(C)ccc3c2=O)cc1 | -23% | 0% | -6% | 1% | ?
CC(C)c1c(O)c(-c2cc3c(c(C(C)C)c2O)CCC2C(C)(C)CCC[C@@]32C)cc2c1CCC1C(C)(C)CCC[C@@]21C (stereo partly drawn) | . | . | . | . | 5%
CC(C)c1cc2c(c(O)c1O)[C@@]13CCCC(C)(C)C1CC2OC3=O (stereo partly drawn) | 17% | -3% | 4% | 16µM* | ?
O=S(=O)(c1ccc2c(c1)C(=NO)c1cc(S(=O)(=O)N3CCCCC3)ccc1-2)N1CCCCC1 | ? | 28µM* | 45% | 17%[57.1 µM] | -20%
O=C(CSc1nc(-c2ccccc2)c(-c2ccccc2)[nH]1)N1CCN(S(=O)(=O)c2ccccc2)CC1 | 2% | 28µM* | 27% | 23% | -17%
O=C(CSc1nc(-c2ccccc2)c(-c2ccccc2)[nH]1)Nc1ccc2c(c1)OCO2 | -13% | 25µM* | 12% | -6% | -2%
O=C(CSc1nc(-c2ccccc2)[nH]c1-c1ccccc1)Nc1ccc2c(c1)OCO2 | ? | -14% | 5% | -5% | 5%
COCCNC(=O)c1ccc2c(c1)N(Cc1cc(C)ccc1C)C(=O)c1ccccc1S2(=O)=O | 4% | -4% | -6% | 5% | -18%
COc1ccc(CCNc2oc(/C=C/c3ccc(OC)c(OC)c3)nc2C#N)cc1 | 5% | 4% | 27% | 62% | 439%
Cc1ccccc1OCC(=O)Nc1ccc(-c2nc3ncccc3o2)cc1 | -11% | 4% | 46% | 32% | -4%
Cc1ccc(OCC(=O)Nc2ccc(-c3nc4ncccc4o3)cc2)c(C)c1 | -20% | 25µM* | 97% | 51% | -3%
COc1cc2ccccc2cc1C(=O)Nc1ccc2oc(-c3ccc(Cl)cc3)nc2c1 | -22% | 4% | 20% | 9% | -2%
COc1ccccc1C(=O)Nc1ccc2oc(-c3ccc(F)cc3)nc2c1 | -14% | 20µM* | 192% | 60% | -1%
COc1cccc(OC)c1C(=O)Nc1ccc(-c2nc3ncccc3o2)cc1 | -37% | 28µM* | 52% | 25% | -7%
CCC(C(=O)NCCc1ccc(Cl)cc1)n1ccc2cc(S(=O)(=O)N3CCCCC3)ccc21 (stereo not drawn) | ? | -5% | 23% | 36% | 50%
COC(=O)NCC12CC3CC(C1)CC(CNC(=O)OC)(C3)C2 | 2% | -6% | 5% | 35µM* | ?
O=S1(=O)CCOC[C@H](c2ccccc2)N1Cc1ccc(Cl)cc1Cl | . | -1% | -2% | 18% | .
CCN1CCOC(=O)C1CC(=O)Nc1cc(C)cc(C)c1 (stereo not drawn) | -27% | 1% | -4% | 11µM* | ?
CCN1CCOC(=O)C1CC(=O)Nc1ccccc1C(F)(F)F (stereo not drawn) | -5% | 2% | 14% | ? | 42%
CCN1CCOC(=O)C1CC(=O)Nc1cc(Cl)ccc1OC (stereo not drawn) | -19% | -15% | 7% | 11µM* | -2%
CCc1ccc(NC(=O)CC2C(=O)OCCN2CC)cc1 (stereo not drawn) | -6% | 2% | 10%[11.4 µM] | 6.3µM* | -11%
Cc1ccc(-n2ncc(C(=O)NCCc3ccsc3)c2C2CCN(C(=O)OC(C)(C)C)CC2)c(C)c1 | 5% | 2% | -8% | 18% | -16%
COc1ccc(C(=O)NCC(=O)OCC(=O)c2ccc3ccccc3c2)cc1 | . | -2% | -15% | -34% | .
NS(=O)(=O)c1ccc(S(=O)(=O)N2CCN(c3nc(-c4cccs4)nc4ccccc34)CC2)cc1 | . | ? | 3% | 6% | .
CC(=O)Nc1ccc(C)cc1-c1nc2ccccc2n(CC(=O)c2ccc(C)c(C)c2)c1=O | -1% | -3% | -12% | -1% | -3%
Cc1ccc(N2CCN(S(=O)(=O)c3cc(Br)cc4c3N(C(=O)C3CC3)CC4)CC2C)cc1 (stereo not drawn) | 4% | -1% | -4% | 8% | -1%
CCOc1c2c(c(-c3ccc4c(c3)OCO4)c3cc(OC)c(OC)cc13)C(=O)OC2 | . | 4% | 17% | 5% | .
Cc1cc(C)n2nc3nc4c(cc3c2n1)CCCC4 | -32% | 13µM* | 247% | 17% | 91%
COc1ccc(CCNC(=O)C(C)n2nc(C)c3sc4ccccc4c3c2=O)c(OC)c1 (stereo not drawn) | -32% | 2% | 9% | -21% | -24%
COc1ccccc1C(=O)c1c(N)c(-c2nc(-c3ccccc3)cs2)c2ccccn12 | 24% | 1% | -6% | 1% | -11%
Cc1cc(C)cc(NC(=O)C(NS(=O)(=O)c2cccc3nsnc23)c2ccccc2)c1 (stereo not drawn) | -1% | -3% | -9% | 11% | -18%
O=C(c1cnc(N2CCCCC2)c2ccccc12)N1CCN(c2cccc(Cl)c2)CC1 | 26% | 28µM* | 1%[57.1 µM] | 18%[57.1 µM] | 60%
COc1ccc(NC(=O)c2cnc(N3CCCCC3)c3ccccc23)cc1Cl | 12% | ? | 0%[57.1 µM] | 18%[57.1 µM] | 70%
COc1ccccc1N1CCN(c2ncc(C(=O)N3CCN(c4cccc(Cl)c4)CC3)c3ccccc23)CC1 | -4% | . | -1%[57.1 µM] | 10%[57.1 µM] | -7%
Cc1ccc(NC(=O)c2cnc(N3CCCCC3)c3ccccc23)cc1Cl | 1% | 32µM* | 2%[57.1 µM] | 33%[57.1 µM] | 112%
CCOC(=O)c1ccccc1NC(=O)c1cnc(N2CCOCC2)c2ccccc12 | -3% | 32µM* | 6%[57.1 µM] | 15%[57.1 µM] | 60%
